The target in test [1] is LDL receptor-related protein 1 (LRP1), purified from human placenta (human) (UniProt Q07954). In words: SPR equilibrium analysis, LMWuPA complex over immobilised LRP1.
Test [2] has the same target. As to the kind of experiment: SPR equilibrium KD relative to LMWuPA:I91L PAI-1.
The target in test [3] is LRP1 ligand binding cluster IV (UniProt Q07954). In words: SPR kinetics, cluster IV immobilised, Schemes I and II, kd1.
The target of test [4] is LDL receptor-related protein 1 (LRP1), purified from human placenta (human) (UniProt Q07954). In words: SPR equilibrium (Req), LRP1 immobilised.
The target is the same in test [5]. As to the kind of experiment: SPR kinetics, Schemes I and II. On the technique in general: Surface plasmon resonance follows binding to a sensor surface in real time, without labels.
Test [6] has the same target. As to the kind of experiment: SPR kinetics, LRP1 immobilised, Schemes I and II, kd1.
For test [7], the target named is LRP1 ligand binding cluster IV (UniProt Q07954). As to the kind of experiment: SPR kinetics, cluster IV immobilised, second step.
Test [8] concerns the target LDL receptor-related protein 1 (LRP1), purified from human placenta (human) (UniProt Q07954). As to the kind of experiment: SPR kinetics, LRP1 immobilised, second step.
The target of test [9] is LRP1 ligand binding cluster IV (UniProt Q07954). As to the kind of experiment: SPR kinetics, cluster IV immobilised, Schemes I and II, ka1.
Test [10] concerns the target LDL receptor-related protein 1 (LRP1), purified from human placenta (human) (UniProt Q07954). In words: SPR kinetics, LRP1 immobilised, Schemes I and II, ka1.

Results on 13 substances are retold here after patent US20220372111A1.

For “LMWuPA complex with PAI-1 mutant K69A (from UniProt P00749 156-431)”, the dissociation constant (Kd) (in general, the constant that tells how readily two partners part at equilibrium) in [1] amounted to 1 nM. Moreover, in test [2], the Fold change came to 2 fold.
In test [1], “LMWuPA complex with PAI-1 mutant K80/207/88A (from UniProt P00749 156-431)” yielded a Kd of 122 nM. Besides, the Fold change in test [2] was 244 fold.
The substance “LMWuPA complex with PAI-1 mutant K80/207/122A (from UniProt P00749 156-431)” showed a Kd in test [1] of 25 nM. The Fold change in test [2] stood at 50 fold.
For “LMWuPA complex with PAI-1 mutant K80/207/176A (from UniProt P00749 156-431)”, the Kd in [1] came to 7 nM. The Fold change in test [2] worked out at 14 fold.
Consider “LMWuPA complex with PAI-1 mutant K80/207/263A (from UniProt P00749 156-431)”, for which the equilibrium dissociation constant (Kd) in test [1] amounted to 16 nM. The substance further yielded a Fold change in [2] of 32 fold.
“LMWuPA complex with PAI-1 mutant K80/207A (from UniProt P00749 156-431)”: in [1], the Kd came to 13 nM. The substance also returned a Fold change in [2] of 26 fold.
For “LMWuPA complex with PAI-1 mutant K80A (from UniProt P00749 156-431)”, in that order: 2.9 nM and 5.8 fold.
As for “LMWuPA complex with PAI-1 mutant K88A (from UniProt P00749 156-431)”, the Kd in test [1] was 0.7 nM. The same substance showed a Fold change in test [2] of 1.4 fold.
In test [1], “LMWuPA complex with PAI-1 mutant K122A (from UniProt P00749 156-431)” showed a Kd of 1 nM. In [2], this substance came in with a Fold change of 2 fold.
In test [1], “LMWuPA complex with PAI-1 mutant K176A (from UniProt P00749 156-431)” returned a Kd of 0.7 nM. In test [2], the Fold change came out at 1.4 fold.
“LMWuPA complex with PAI-1 mutant K207A (from UniProt P00749 156-431)” registered a Kd in [1] of 0.8 nM. Further, in test [2], the Fold change turned out to be 1.6 fold.
For “LMWuPA complex with PAI-1 mutant K263A (from UniProt P00749 156-431)”, the Kd in test [1] turned out to be 0.7 nM. In addition, in test [2], the Fold change was determined as 1.4 fold.
Consider “LMWuPA:I91L PAI-1 complex (from UniProt P00749 156-431)”, for which the koff (usually the rate constant with which the complex falls apart) in [3] worked out at 0.046 s⁻¹; in [6], 0.018 s⁻¹. Moreover, the Kd in [4] is 0.9 nM; in [1] it was 0.5 nM. In test [5], this substance registered a fold affinity against PAI-1 alone of 100 fold. Besides, the results for the ka2 in [7] and in [8] were 0.14 s⁻¹ and 0.042 s⁻¹, respectively. Moreover, the values for the kd2 in [7] and in test [8] were 0.01 s⁻¹ and 0.0018 s⁻¹, respectively. Moreover, the kon – broadly, a measure of how fast the partners come together – in [9] stood at 1.3e+06 M⁻¹ s⁻¹; in test [10], 910000 M⁻¹ s⁻¹. In test [2], this substance yielded a Fold change of 1 fold.
